Results reported in published antibiotic growth screens (doi:10.1038/s41589-023-01349-8).
The other results are listed elsewhere or left out.

System: A. baumannii ATCC 17978
Test: relative growth (fraction of control); higher = less inhibition
Settings: 50 µM

Going from `COCN(C#N)c1nc(N(C)C)nc(N(C)C)n1` to `COCC#Cc1ccc2c(c1)O[C@H](CN(C)C(=O)CN(C)C)[C@@H](C)CN([C@@H](C)CO)S2(=O)=O`, the relative growth rises from 0.933 to 0.973.

Going from `FC(F)(Cl)C(F)(F)Cl` to `Cc1ccc(S[C@]2(C(=O)NCCCN(C)C)CC(=O)N(Cc3ccccc3C(F)(F)F)[C@@H]2c2ccc(CO)cc2)cc1`, the relative growth falls from 1.03 to 1.01.

Compared with `NCCC(=O)N1c2ccccc2Sc2ccccc21`, `CC1Cc2ccccc2N1NC(=O)c1ccc(Cl)c(S(N)(=O)=O)c1` (stereo not given) is lower in relative growth: 0.949 for the first, 0.899 for the second.

Going from `C[C@H](CO)N1C[C@H](C)[C@@H](CN(C)Cc2ccc(Oc3ccccc3)cc2)Oc2cc(-c3ccncc3)ccc2S1(=O)=O` to `COCC#Cc1ccc2c(c1)O[C@H](CN(C)Cc1ccc(F)cc1)[C@H](C)CN([C@H](C)CO)S2(=O)=O`, the relative growth falls from 1.34 to 0.715.

Compared with `O=C(C[C@@H]1C=C[C@H](NC(=O)CN2CCOCC2)[C@H](CO)O1)NCc1cccc(F)c1`, `O=C(N[C@H]1CC[C@H](CCNS(=O)(=O)c2ccc(F)cc2)O[C@@H]1CO)C1CC1` is lower in relative growth: 1.12 for the first, 1.05 for the second.

Compared with `O=S(=O)([O-])c1cc(I)c(O)c2ncccc12.[Na+]`, `Cc1ccccc1NC(=O)C[C@H]1NCCNC1=O` is higher in relative growth: 0.343 for the first, 0.954 for the second.

Compared with `O=C(O)c1cncnc1N1CCCC1`, `Cl.Clc1ccc(Cn2c(CN3CCCC3)nc3ccccc32)cc1` is lower in relative growth: 0.966 for the first, 0.794 for the second.

Compared with `CCOn1c(=O)c(=O)n(OC)c2ccccc21`, `COc1ccc(N2C[C@H](C(N)=O)CC2=O)cc1` is lower in relative growth: 1.03 for the first, 0.897 for the second.

Going from `COCC(=O)N(C)C[C@H]1Oc2cc(C#Cc3ccccc3)ccc2S(=O)(=O)N([C@H](C)CO)C[C@H]1C` to `COCC#Cc1ccc2c(c1)O[C@H](CN(C)C(=O)c1ccccc1F)[C@H](C)CN([C@@H](C)CO)S2(=O)=O`, the relative growth rises from 0.903 to 1.06.

Compared with `O[C@@H]1[C@@H](O)[C@H](Nc2ccccc2)OC[C@H]1O`, `O=C1O[C@@H](c2ccccc2)[C@@H](c2ccccc2)N2[C@@H](c3ccc(O)cc3)[C@]3(C(=O)Nc4ccc(C#CCCO)cc43)[C@@H](C(=O)NC[C@H](O)c3ccccc3)[C@H]12` is higher in relative growth: 0.881 for the first, 0.989 for the second.

Going from `CCCOc1c(-c2ccc3ccccc3n2)cnc2ccccc12` to `Cc1cc(CC(=O)O)n(C)c1C(=O)c1ccc(Cl)cc1`, the relative growth rises from 0.82 to 1.03.

Going from `CO[C@@H]1CN(C)C(=O)c2ccc(NS(C)(=O)=O)cc2OC[C@@H](C)N(C(=O)C2CCOCC2)C[C@@H]1C` to `CC(=O)OCC(=O)[C@@]1(O)CCC2C3CCC4=CC(=O)CC[C@]4(C)[C@@]3(F)[C@@H](O)C[C@@]21C` (stereo not given in full), the relative growth rises from 0.892 to 0.994.

For `CC(C)(C)OC(=O)N1CC2(CNC(=O)O2)C1`, the relative growth was 1.1.
